The results in this text go back to ChEMBL document CHEMBL5365518, “Synthesis and Validation of the First Cell-Impermeable Hsp90α-Selective Inhibitors” (ACS Med Chem Lett, 2023).

The species named for experiment [1] is Homo sapiens. The experiment is described as follows: Selectivity index, ratio of IC50 for binding affinity to Grp94 (unknown origin) to IC50 for binding affinity HSP90alpha (unknown origin).
The species entered for experiment [2] is Homo sapiens. The experiment is described as follows: Selectivity index, ratio of IC50 for binding affinity to Trap1 (unknown origin) to IC50 for binding affinity HSP90alpha (unknown origin).

Some results are limits rather than exact numbers.

For the compound `Cc1ccc(Sc2cc(C(=O)N3Cc4ccc(OCCCN(C)C)cc4C3)ccc2O)cc1C`, the Ratio IC50 in the experiment listed under Homo sapiens [1] and in the experiment listed under Homo sapiens [2] was over 196 each time.

On to `Cc1ccc(Sc2cc(C(=O)N3Cc4ccc(OCC[N+](C)(C)C)cc4C3)ccc2O)cc1C.O=C([O-])C(F)(F)F`, for which the Ratio IC50 in the experiment listed under Homo sapiens [1] and in the experiment listed under Homo sapiens [2] was over 153 each time.

`Cc1ccc(Sc2cc(C(=O)N3Cc4ccc(OCCN(C)C)cc4C3)ccc2O)cc1C`: the Ratio IC50 in the experiment filed under Homo sapiens [1] and in the experiment listed under Homo sapiens [2] was over 117 each time.

With `Cc1ccc(Sc2cc(C(=O)N3Cc4ccc(OCCC[N+](C)(C)C)cc4C3)ccc2O)cc1C.O=C([O-])C(F)(F)F`, the Ratio IC50 in the experiment listed under Homo sapiens [1] and in the experiment listed under Homo sapiens [2] was over 294 each time.
